miR-122 sensor: miR-122 inhibition in Huh7 cells | 340,000 compounds, 0.3% hits | AID 602342 | Huh7 miR-122 Renilla luciferase sensor, 48 h; neutral wells = 0, positive control = 100 | activation (reporter increase), % at 12.5 µM;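 active means mean replicate activation score at least 90 and every replicate individually at or above 90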;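 further: higher luciferase means less miR-122 activity so hits act as miR-122 inhibitors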
Statin myotox sup: suppressors of simvastatin-induced myotoxicity in C2C12 myotubes; ATP luminescence, 48 h; scaled: DMSO 0, geranylgeraniol control 100; rescue of ATP level, % at 7.49 µM; 330,000 compounds, 0.78% hits; AID 602340;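 active means mean ATP rescue above about 67%, or every replicate alone reaching that limit, limit read from the data, passing the limit was not always enough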;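 further: myotubes were challenged with 10 µM simvastatin during compound exposure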
Cneo AK release: causes C. neoformans cell lysis; adenylate kinase release luminescence, 4 h; normalised: neutral wells 0, clomiphene wells 100; lysis activity, % at 15 µM; 360,000 compounds, 0.2% hits;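 active means mean lysis activity across replicates of at least 80%, whatever share of replicates individually reach that level; inactive means mean lysis activity below 80%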
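Test system: log-phase Cryptococcus neoformans yeast cells. Input: 5 × 10^6 yeast cells/mL. Medium: fresh YPD growth medium. Doses: single dose. Incubation: static 4 h at 37 °C with compound, 1 h detection. Measured by: luminescent adenylate kinase detection reagent. Read-out: signal increase indicating cell lysis. Benchmarks: Clomiphene.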
Yeast UUG start-1: alters start codon recognition fidelity in yeast. S. cerevisiae UUG-firefly luciferase reporter, luminescence/redox ratio. AID 602363. activity score, % at 18.7 µM. hit rate 0.13% among 350,000;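 active = replicate mean at a twofold rise or more, about +100% in these data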;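 note: firefly luciferase made from a UUG start codon reports start codon fidelity; reporter light over untreated wells divided by growth signal over untreated wells; some hits fall short of that in this replicate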
Yeast UUG start-2: alters UUG start codon use in yeast | shares compounds with Yeast UUG start-1 | S. cerevisiae UUG-start firefly luciferase, luminescence, 4 h; 100% means double the DMSO signal | activation, % at 38 µM | 540 tested, under 10 active;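 active means signal increase whose fitted curve reaches an absolute level of 40 at a concentration under 10 µM; inactive means activity opposite to the expected increase, or the rest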
Starred values were filed as active, the others as inactive; i = inactive; . = no result given; [ ] = remark or other dose. This is a sample that favours compounds with a hit; in the whole collection about 1.2% have one here.

1. COc1cccc(OC)c1NC(=O)Cc1nn(C)c(=O)c2ccccc12
2. CC(C)(C)OC(=O)N1CCN(c2ccc(NC(=O)Cn3nnc(-c4ccccc4)n3)cc2)CC1
3. Cn1nc(CC(=O)Nc2ccc(Oc3ccccc3)cc2)c2ccccc2c1=O
4. CN(C)C(=O)[C@H]1[C@H](CO)[C@H]2Cn3c(ccc(-c4ccncc4)c3=O)[C@H]2N1Cc1ccccc1
5. Cc1ccccc1-c1cnc2c(c1)C(=O)N([C@@H](C)CO)C[C@H](C)[C@H](CN(C)C(=O)c1ccccc1)O2
6. COc1cc(NC(=O)Cc2nn(C)c(=O)c3ccccc23)cc(OC)c1
7. Cc1csc(NC(=O)Cc2nn(C)c(=O)c3ccccc23)n1
8. Cc1csc(NC(=O)Cc2ccccc2Cl)n1

| Screen / compound no. | 1 | 2 | 3 | 4 | 5 | 6 | 7 | 8 |
| --- | --- | --- | --- | --- | --- | --- | --- | --- |
| miR-122 sensor | -0.5 | -9.8 | . | . | 2.3[16.7 µM] | -2.3 | -3.7 | 1.4 |
| Statin myotox sup | 19.3 | -42.1 | . | 5.8 | -1.8 | 6.1 | . | -12.1 |
| Cneo AK release | -3.7 | -2.0 | . | -4.8 | -0.6 | 14.7 | 0.2 | -0.2 |
| Yeast UUG start-1 | -10.4 | -2.7 | . | . | -6.4 | -8.6 | -18.4 | -11.0 |
| Yeast UUG start-2 | 4.5 | . | i | . | . | 3.9 | -6.8 | . |

9. CCN(CC)C(=O)C1=C(C)N(CCCN2CCCC2=O)C(=O)C(CC(=O)NCCc2ccccn2)C1 (centres undefined)
10. CC1=C(C(=O)N(C(C)C)C(C)C)CC(CC(=O)NCCCN(C)C)C(=O)N1CCCN1CCCC1=O (centres undefined)
11. CC1=C(C(=O)N(C)C)CC(CC(=O)NCCc2ccccn2)C(=O)N1CCCN1CCCC1=O (centres undefined)
12. CC1=C(C(=O)N(C)C)CC(CC(=O)NCCCN(C)C)C(=O)N1CCCN1CCCC1=O (centres undefined)
13. CCC(=O)Nc1ccc2c(c1)C(=O)N(C)[C@@H]1CC[C@H](CC(=O)NCc3ccccc3Cl)O[C@@H]1CO2
14. CSc1ccc(S(=O)(=O)NC2CC2)cc1
15. Cc1ccc(S(=O)(=O)N2CCOCC2)cc1C(=O)OC(C)C(=O)NC1CCCC1 (centres undefined)
16. C[C@H](CO)N1C[C@H](C)[C@H](CN(C)S(=O)(=O)c2ccc(C#N)cc2)Oc2ncc(-c3ccc(F)cc3)cc2C1=O

| Screen / compound no. | 9 | 10 | 11 | 12 | 13 | 14 | 15 | 16 |
| --- | --- | --- | --- | --- | --- | --- | --- | --- |
| miR-122 sensor | 1.9 | 2.3 | -4.6 | -4.1 | -0.6[16.7 µM] | 4.2 | . | -4.4[16.7 µM] |
| Statin myotox sup | 12.5 | 3.3 | 14.9 | -3.0 | 0.0 | 5.3 | 1.1 | 22.1 |
| Cneo AK release | -0.6 | -0.6 | 1.4 | 1.5 | 0.2 | 7.3 | 1.2 | 0.5 |
| Yeast UUG start-1 | -23.5 | -6.9 | 101.3* | 104.3* | 3.2 | 154.9* | 119.1* | 3.3 |
| Yeast UUG start-2 | . | . | -6.3 | 7.2 | . | -3.9 | -5.0 | . |

17. CC1CCCCC1NC(=O)/C(C#N)=C/c1ccccc1F (centres undefined)
18. CO[C@@H]1CN(C)C(=O)c2ccc(NC(=O)Nc3ccccc3F)cc2OC[C@@H](C)N(C(C)=O)C[C@@H]1C
19. CCOC(=O)Cn1nc(C)n(-c2cccc(Cl)c2)c1=O
20. CCOC(=O)Cn1nc(C)n(-c2ccc(C(C)C)cc2)c1=O
21. CCOc1ccc(CCNS(=O)(=O)c2c(C)cc(C)cc2C)cc1OCC
22. C[C@H](CO)N1C[C@H](C)[C@H](CN(C)C)Oc2ccc(NC(=O)NC3CCCCC3)cc2CC1=O
23. CCCCn1c(N)c(N(CCOC)C(=O)C2CC(=O)N(c3ccc(CC)cc3)C2)c(=O)[nH]c1=O (centres undefined)
24. CCCCn1c(N)c(N(CCOC)C(=O)C2CC(=O)N(Cc3ccc(C)cc3)C2)c(=O)[nH]c1=O (centres undefined)

| Screen / compound no. | 17 | 18 | 19 | 20 | 21 | 22 | 23 | 24 |
| --- | --- | --- | --- | --- | --- | --- | --- | --- |
| miR-122 sensor | 1.3 | 12.0[16.7 µM] | 23.0 | -0.8 | . | -5.1[16.7 µM] | . | . |
| Statin myotox sup | 4.2 | 3.2 | -3.2 | 4.6 | . | 6.0 | 6.0 | -4.8 |
| Cneo AK release | -4.6 | 54.6 | 0.9 | -3.1 | . | -0.9 | -1.4 | 1.1 |
| Yeast UUG start-1 | 221.7* | 6.6 | 222.9* | -16.5 | . | 1.6 | 129.0* | -6.1 |
| Yeast UUG start-2 | -14.0 | . | -2.9 | . | i | . | -5.6 | . |

25. CN(C)Cc1cn(CC[C@@H]2CC[C@@H](N)[C@H](CO)O2)nn1
26. CC(C)c1cn(CC[C@H]2CC[C@H](N)[C@@H](CO)O2)nn1
27. O=C(CN1c2ccccc2Sc2ccccc21)N/N=C/c1ccc(Cl)cc1
28. N#CCSc1nnc(-c2sc3ccccc3c2Cl)o1
29. COc1ccc(-c2nnc(SCC#N)o2)cc1
30. COC(=O)CSc1nnc(-c2sc3ccccc3c2Cl)o1
31. C[C@H](CO)N1C[C@H](C)[C@@H](CN(C)S(C)(=O)=O)Oc2ccc(NS(=O)(=O)c3ccccc3)cc2CC1=O
32. CCN(CC)CCNC(=O)Cn1nc(Cc2ccncc2)c2ccccc2c1=O

| Screen / compound no. | 25 | 26 | 27 | 28 | 29 | 30 | 31 | 32 |
| --- | --- | --- | --- | --- | --- | --- | --- | --- |
| miR-122 sensor | 0.6[16.7 µM] | 11.3[16.7 µM] | -8.8 | . | . | -1.7 | 1.9[16.7 µM] | -11.4 |
| Statin myotox sup | -4.9 | -16.2 | . | . | -6.6 | 7.2 | 1.0 | 3.1 |
| Cneo AK release | -1.1 | 0.9 | 3.5 | . | -0.5 | -5.5 | 13.7 | -0.5 |
| Yeast UUG start-1 | 7.6 | 134.2* | 180.3* | . | -10.3 | 564.7* | -4.4 | -3.9 |
| Yeast UUG start-2 | . | i | -6.7 | -1.0 | . | -4.7 | . | . |

The closing three records of the section before are carried over, then new ones follow:
30. COC(=O)CSc1nnc(-c2sc3ccccc3c2Cl)o1
31. C[C@H](CO)N1C[C@H](C)[C@@H](CN(C)S(C)(=O)=O)Oc2ccc(NS(=O)(=O)c3ccccc3)cc2CC1=O
32. CCN(CC)CCNC(=O)Cn1nc(Cc2ccncc2)c2ccccc2c1=O
33. CCN(CC)CCNC(=O)Cc1nn(Cc2ccccc2)c(=O)c2ccccc12
34. CC(=O)Nc1ccc(S(=O)(=O)NCCC(=O)Nc2ccc(C)c(F)c2)cc1
35. CC(=O)NCCC(=O)Nc1ccc(C)c(F)c1
36. O=C(Nc1ccc(N2CCN(C(=O)c3ccco3)CC2)cc1)c1cccc(F)c1
37. O=C(CNC(=O)c1cccc(F)c1)OCC(=O)N1CCN(C(=O)c2ccco2)CC1
38. O=S(=O)(Nc1cccc(-c2cn3cccnc3n2)c1)c1ccc(-c2ccccc2)cc1
39. Cc1noc(C)c1NC(=O)N(C)C[C@H]1Oc2cc(C#CCC3CCCC3)ccc2S(=O)(=O)N([C@H](C)CO)C[C@H]1C
40. N#C/C(=C\Nc1ccc2c(c1)OCCO2)C(=O)NCc1ccco1

| Screen / compound no. | 30 | 31 | 32 | 33 | 34 | 35 | 36 | 37 | 38 | 39 | 40 |
| --- | --- | --- | --- | --- | --- | --- | --- | --- | --- | --- | --- |
| miR-122 sensor | -1.7 | 1.9[16.7 µM] | -11.4 | 1.7 | 10.4 | -4.8 | 1.5 | -2.8 | 20.5 | -10.0[16.7 µM] | 0.3 |
| Statin myotox sup | 7.2 | 1.0 | 3.1 | -2.8 | -1.8 | 1.1 | 0.7 | 1.4 | 16.7 | -5.7 | 0.1 |
| Cneo AK release | -5.5 | 13.7 | -0.5 | -1.5 | 8.5 | -2.0 | -0.8 | -0.6 | 1.5 | -16.5 | 0.6 |
| Yeast UUG start-1 | 564.7* | -4.4 | -3.9 | -18.0 | 200.2* | -9.4 | 34.4 | 213.1* | 545.0* | . | 102.2* |
| Yeast UUG start-2 | -4.7 | . | . | -7.6 | -0.8 | . | . | -2.1 | 3.4 | . | -3.7 |

41. C[C@H]1CN([C@@H](C)CO)C(=O)c2cccc(NS(=O)(=O)c3cn(C)cn3)c2O[C@@H]1CN(C)S(=O)(=O)c1cccs1
42. Cc1cccc(S(=O)(=O)N[C@H]2CC[C@H](CCNS(=O)(=O)c3ccccc3F)O[C@@H]2CO)c1
43. O=C(NC(=S)Nc1cccc(C(F)(F)F)c1)c1ccc2nonc2c1
44. CCOc1cc(OCC)cc(C(=O)NC(=S)Nc2cccc(C(F)(F)F)c2)c1
45. CCN1[C@@H]2c3cccc(=O)n3C[C@@H]2[C@@H](CO)[C@@H]1C(=O)NC1Cc2ccccc2C1
46. Cc1ccc(NC(=O)Cc2nn(C)c(=O)c3ccccc23)cc1F
47. Cn1c(C(=O)O)c(CC(=O)Nc2ccc3c(c2)OCCO3)c2ccccc21
48. Cn1nc(CC(=O)Nc2ccc3c(c2)OCCO3)c2ccccc2c1=O
49. Cn1nc(CC(=O)NCc2cccc3ccccc23)c2ccccc2c1=O
50. Cn1nc(CC(=O)Nc2cccc(O)c2)c2ccccc2c1=O
51. O=C(/C=C/c1ccccc1)Nc1nc(-c2ccncc2)cs1

| Screen / compound no. | 41 | 42 | 43 | 44 | 45 | 46 | 47 | 48 | 49 | 50 | 51 |
| --- | --- | --- | --- | --- | --- | --- | --- | --- | --- | --- | --- |
| miR-122 sensor | 6.1[16.7 µM] | . | 12.6 | 8.2 | . | -4.8 | -3.0 | -8.1 | -3.4 | . | 7.4 |
| Statin myotox sup | -3.1 | 24.5 | . | . | -3.5 | . | 0.7 | . | 1.4 | . | -15.5 |
| Cneo AK release | -0.3 | 51.8 | 2.6 | . | 43.8 | -1.8 | -5.0 | . | -1.5 | . | -3.7 |
| Yeast UUG start-1 | -14.2 | 38.8 | 138.5* | . | . | 0.5 | -47.3 | . | -16.1 | . | 594.0* |
| Yeast UUG start-2 | . | . | -8.2 | . | . | 15.6 | . | -2.1 | . | i | -7.0 |
